Target: Kappa-type opioid receptor (Homo sapiens, UniProt P41145)
Assay: Incorporation of [35S]GTP-gamma-S, into CHO membranes expressing human Opioid receptor kappa 1
Format: functional

The chains behind the UniProt entries cited, without tags or fusion partners. Where a name states a change or a piece, a line headed by the entry shows the natural chain unless it says otherwise.
UniProt P41145: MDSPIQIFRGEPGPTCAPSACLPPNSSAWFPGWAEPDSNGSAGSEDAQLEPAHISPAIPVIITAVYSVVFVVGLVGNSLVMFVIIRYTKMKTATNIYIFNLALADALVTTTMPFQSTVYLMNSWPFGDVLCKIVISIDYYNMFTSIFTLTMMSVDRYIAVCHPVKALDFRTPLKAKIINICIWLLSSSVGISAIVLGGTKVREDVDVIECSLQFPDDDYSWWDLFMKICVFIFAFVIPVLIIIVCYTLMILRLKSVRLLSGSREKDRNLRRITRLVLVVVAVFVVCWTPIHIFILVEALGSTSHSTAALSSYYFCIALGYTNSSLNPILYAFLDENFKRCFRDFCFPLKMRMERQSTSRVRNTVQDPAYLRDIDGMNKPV

Work on CN(C(=O)Cc1ccc(Cl)c(Cl)c1)C1CCC2(CCCO2)CC1N1CCCC1 (stereo unspecified) yielded an Emax of 120%.

Source: ChEMBL document CHEMBL1145777 (J Med Chem, 2003)
